Test results taken from US20050154230A1, “Urea derivatives” (Bayer HealthCare AG, priority 2001, published 2005).

By UniProt entry, the sequences of proteins in these tests, tags left out.
UniProt Q8NER1, whole entry: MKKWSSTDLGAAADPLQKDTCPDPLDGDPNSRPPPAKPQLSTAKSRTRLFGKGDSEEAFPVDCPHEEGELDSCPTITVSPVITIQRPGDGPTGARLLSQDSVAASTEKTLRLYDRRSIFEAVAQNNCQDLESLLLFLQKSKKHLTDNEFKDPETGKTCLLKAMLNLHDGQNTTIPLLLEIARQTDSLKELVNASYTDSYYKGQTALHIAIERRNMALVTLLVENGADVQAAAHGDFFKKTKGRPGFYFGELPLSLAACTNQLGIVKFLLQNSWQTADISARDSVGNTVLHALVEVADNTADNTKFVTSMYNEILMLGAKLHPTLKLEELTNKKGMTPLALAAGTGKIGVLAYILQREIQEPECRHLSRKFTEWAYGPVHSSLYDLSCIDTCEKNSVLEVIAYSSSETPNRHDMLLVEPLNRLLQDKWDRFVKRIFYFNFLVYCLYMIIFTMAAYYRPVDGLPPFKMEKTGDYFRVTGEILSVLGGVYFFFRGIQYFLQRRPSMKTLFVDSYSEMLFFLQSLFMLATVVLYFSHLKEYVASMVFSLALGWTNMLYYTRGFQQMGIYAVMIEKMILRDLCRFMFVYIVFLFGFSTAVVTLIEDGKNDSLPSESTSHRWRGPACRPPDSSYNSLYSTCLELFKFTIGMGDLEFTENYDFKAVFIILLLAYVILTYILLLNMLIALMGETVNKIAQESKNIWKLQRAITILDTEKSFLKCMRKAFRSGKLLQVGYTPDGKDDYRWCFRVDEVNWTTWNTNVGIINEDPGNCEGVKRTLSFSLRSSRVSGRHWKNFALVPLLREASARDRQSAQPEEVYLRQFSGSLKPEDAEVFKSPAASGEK

Biological target: human VR1 (Homo sapiens, UniProt Q8NER1)
Assay: Capsaicin-induced Ca2+ influx in the human VR1-transfected CHO cell line (Assay 1)
Assay type: cell-based
Details: read-out: hVR1 class; human VR1-CHOluc9aeq cells, 10 nM capsaicin; compound purity about 40 to 90%

| SMILES | IC50 [nM] |
| --- | --- |
| CSc1cccc(NC(=O)NCc2ccc(Cl)c(Cl)c2)c1 | 500 to 1000 |
| COc1cc(CNC(=O)Nc2ccc(C)c(Cl)c2)ccc1O | < 100 |
